# From PubChem BioAssay AID504692 (The Scripps Research Institute Molecular Screening Center, 2011)
# By UniProt entry, the sequences of proteins in these tests, tags left out.
# UniProt P47898, whole entry, looked up: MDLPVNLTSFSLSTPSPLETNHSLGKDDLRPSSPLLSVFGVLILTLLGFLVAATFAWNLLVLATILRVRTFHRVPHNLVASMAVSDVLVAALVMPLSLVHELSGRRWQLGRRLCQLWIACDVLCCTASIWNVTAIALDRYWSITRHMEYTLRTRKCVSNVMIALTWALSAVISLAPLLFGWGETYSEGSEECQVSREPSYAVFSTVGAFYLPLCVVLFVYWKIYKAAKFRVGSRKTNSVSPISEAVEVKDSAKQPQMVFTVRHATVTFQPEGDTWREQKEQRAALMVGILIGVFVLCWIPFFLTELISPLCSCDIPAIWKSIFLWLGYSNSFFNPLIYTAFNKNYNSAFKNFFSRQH
# This is a selection; strong and weak results do not stand in their true shares. The source made the active and inactive calls. Rule as the data show it: active = activation mostly above about 9.5% (no sharp cut-off); inactive = mostly below about 7.6%.
# Molecular target: 5-hydroxytryptamine receptor 5A (Homo sapiens) (UniProt P47898)
# Test: HTR5A agonists in luminescence cell assay, primary screen, counter-screen for OPRM1-OPRD1 heterodimer agonist project, full-deck HTS (AID 504692);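 also: 0% = cells with vehicle only and 100% = reference agonist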
# Conditions: cell-based, at 9.3 µM, stronger effect = higher value
row,SMILES,activation
1,Cc1ccc2c(c1)C1CN(C)CCC1N2C(=O)/C(C#N)=C/c1ccc2c(c1)OCO2 (stereo unspecified),inactive: 3.05%
2,CN(C)CCn1cnc2c1c(=O)[nH]c(=O)n2Cc1ccccc1,inactive: 4.52%
3,N=c1n(CCN2CCOCC2)c2ccccc2n1Cc1ccccc1Br,inactive: 0.07%
4,CCc1ccccc1NC(=O)CSc1nc2ccccc2n1CC(=O)N(C)C,inactive: 1.93%
5,O=C(Cn1cnc2ccccc21)N/N=C/c1cccs1,inactive: -0.47%
6,O=S(=O)(Nc1ccc2c(c1)nc1n2CCN(Cc2ccccc2)C1)c1ccc(Cl)cc1,active: 11.1%
7,CC(C)N(C(=O)Cn1c(SCC(=O)NCc2ccc3c(c2)OCO3)nc2ccccc21)C(C)C,inactive: -6.14%
8,O=C1CC(N2CCC(n3c(=O)[nH]c4ccccc43)CC2)C(=O)N1c1ccc(F)cc1 (stereo unspecified),inactive: 1.78%
9,CC(c1ccccc1)N1CCn2c(nc3cc(NC(=O)c4cccs4)ccc32)C1 (stereo unspecified),inactive: 9.41%
10,Cc1ccc(OCC(=O)OC2CN3CCC2CC3)cc1 (stereo unspecified),active: 8.81%
11,C[C@H](O)[C@@H]1C(=O)N2CCc3ccc(N4CCN(C)CC4)cc3[C@@H]2C[C@@H]1N(C)C(=O)Nc1cc(Cl)cc(Cl)c1,inactive: -3.2%
12,Cc1ccc(C(=O)N(C)c2ccc(OCC(=O)N3c4ccc(C)cc4C4CN(C)CCC43)cc2)cc1 (stereo unspecified),inactive: -2.81%
13,CCc1ccccc1NC(=O)CSc1nc2ccccc2n1CC(=O)N1CCCC1,inactive: -1.81%
14,O=[As](O)(c1cccs1)c1cccs1,inactive: 6.46%
15,NC(=O)Cn1c(S(=O)(=O)Cc2ccccc2)nc2ccccc21,inactive: -0.91%
16,CCC(=O)N1CCn2c1nc1ccccc12,inactive: 6.94%
17,O=C(NCCn1c(-c2ccncc2)nc2ccccc21)[C@H]1CCCN1c1nc(CN2CCCCC2)cs1,inactive: -2.26%
18,Cc1cc(NC(=O)Cn2cnc3c2c(=O)n(C)c(=O)n3C)n(-c2ccccc2)n1,inactive: 0.86%
19,NS(=O)(=O)c1cccc(NC(=O)COC(=O)C(O)(c2ccccc2)c2ccccc2)c1,inactive: -1.41%

row,SMILES,activation
1,O=P1(Nc2ccc(Br)cn2)COc2ccccc2OC1,inactive: -1.52%
2,Cc1ccc2c(c1)C1CN(C)CCC1N2C(=O)c1ccccc1NS(=O)(=O)c1ccc(F)cc1C (stereo unspecified),inactive: -1.81%
3,COC(=O)[C@H](Cc1ccc(O)cc1)NC(=O)Cn1cnc2c(OCc3ccccc3)ncnc21,inactive: -1.13%
4,CC(C)C[C@H](NC(=O)N1CCn2c1nc1ccccc12)C(=O)NCc1ccco1,inactive: -2.21%
5,Cc1ccc(S(=O)(=O)N2CCN(C(=O)Cn3cnc4c3c(=O)n(C)c(=O)n4C)CC2)cc1C,inactive: -3.21%
6,Cn1c(CNc2nc3ccccc3n2CCN2CCCCC2)nc2ccccc21,inactive: -2.23%
7,Cc1ccc2c(c1)C1CN(C)CCC1N2C(=O)Cn1nnc(-c2ccccc2F)n1 (stereo unspecified),inactive: -0.15%
8,CCOCN(C(=O)Cn1c(COC)nc2ccccc21)c1c(C)cccc1CC,inactive: -6.68%
9,Nc1cccc([As](=O)(O)c2ccccc2)c1,inactive: 3.07%
10,Cc1ccc2c(c1)C1C[N+](C)(CC(=O)Nc3ccccc3Cl)CCC1N2C(=O)c1ccccc1Cl (stereo unspecified),inactive: -0.99%
11,Cc1ccc(NC(=O)Cn2cnc3c(NCc4ccccc4)ncnc32)cc1C,inactive: -2.37%
12,CSc1nc(N)nc2c1ncn2CC(=O)NCC1CCCO1 (stereo unspecified),inactive: -2.3%
13,Cn1c(=O)[nH]c(=O)c2c1nc(CN1CCN(c3cccc(Cl)c3)CC1)n2CCN1CCOCC1,inactive: -3.32%
14,COc1ccccc1N1CCN(C(=O)Cn2cnc3c2c(=O)n(C)c(=O)n3C)CC1,inactive: -5.74%
15,Cn1c(=O)c2c(ncn2CC(=O)Nc2ccc(Cl)cc2Cl)n(C)c1=O,inactive: -4.29%
16,Cn1c(=O)c2c(ncn2CC(=O)Nc2ccccc2Sc2ccccc2)n(C)c1=O,inactive: 1.25%
17,Cn1c(=O)c2ncn(CC(=O)NCCOCc3ccccc3Cl)c2n(C)c1=O,inactive: 8.16%
18,O=C(Cn1c(-c2ccccc2Cl)nc2ccccc21)Nc1cccc(Cl)c1,inactive: -2.5%
19,O=C(Cn1cnc2ccccc21)Nc1cc(C(F)(F)F)ccc1N1CCOCC1,inactive: 2.11%

row,SMILES,activation
1,O=C(Cn1c(SCC(=O)N2CCc3ccccc32)nc2ccccc21)NC1CCCC1,inactive: 8.54%
2,CC(C)(C)NC(=O)Cn1c(SCC(=O)NCc2cccs2)nc2ccccc21,inactive: -0.81%
3,O=C(Cn1c(=O)n(CC2CS2)c2ccccc21)N1CCCCCC1 (stereo unspecified),inactive: -3.46%
4,CCn1cc(Cl)c(C(=O)Nc2nc3ccccc3n2CCN2CCCCC2)n1,inactive: -0.35%
5,CCCC(=O)Nc1ccc(C(=O)/C=C/c2ccc(SC)cc2)cc1,inactive: 2.02%
6,O=C(Cn1c(C(F)(F)F)nc2ccccc21)NCCN1CCCC1,inactive: 3.28%
7,c1ccc2c(c1)nc(-c1ccncc1)n2CCNc1nc(CN2CCCCC2)cs1,inactive: -2.16%
8,Cc1cccc(C)c1NC(=O)N1CCC(n2c(=O)[nH]c3ccccc32)CC1,inactive: 1.17%
9,Cc1cccc(Cn2c(=O)c3c(nc4n3CCN4Cc3ccco3)n(C)c2=O)c1,inactive: 0.2%
10,Cc1nn(-c2ccccc2)c2c1P(=O)(N1CCOCC1)N(C)C(c1ccccc1)=N2 (stereo unspecified),inactive: 0.31%
11,Cc1ccc(C(=O)OC2CN3CCC2CC3)cc1 (stereo unspecified),inactive: -1.4%
12,CCN(CC)C(=O)Cn1c(=O)n(C)c2ccccc21,inactive: -3.27%
13,CC1CCC(C(C)C)C(OP(=O)(Nc2ccccn2)c2ccccc2)C1 (stereo unspecified),inactive: 1.21%
14,CCN(CC)c1ccc(NC(=O)Cn2c(C(C)NC(=O)c3ccccc3)nc3ccccc32)cc1 (stereo unspecified),inactive: -2.62%
15,CN1CN(c2ccccc2)C2(CCN(CCCSc3ccccc3NC(=O)/C=C/c3ccccc3)CC2)C1=O,inactive: -3.57%
16,COc1ccc(Cc2nc3ccccc3n2CC(=O)N/N=C/c2ccc(C)cc2O)cc1OC,inactive: 0.28%
17,COc1cccc(C(=O)N2CCn3c2nc2ccccc23)c1,inactive: 2.25%
18,CCN(c1ccccc1)S(=O)(=O)c1ccc(OC)c(NC(=O)Cn2cnc3c2c(=O)n(C)c(=O)n3C)c1,inactive: -1.04%
